According to US7919459B2, “Use of C5a receptor antagonist in the treatment of fibrosis” (Promics Pty Limited, priority 2002, dated 2011):

System: L-NAME-treated male Wistar rats
Assay: L-NAME-induced hypertension/cardiac fibrosis in rats: intake, growth, tail-cuff blood pressure, organ weights
Experimental: Male Wistar rats (8 weeks old) were obtained from the Central Animal Breeding House of The University of Queensland.
This agent was administered at a dosage of 1 mg/kg/day orally for 4 days before rats were additionally treated with nitro-L-arginine methyl ester (L-NAME) for 4 weeks, i.e. a total duration of treatment of antagonist of 32 days. L-NAME administration produces hypertension and cardiac remodelling as a result of inhibition of the production of nitric oxide (NO).
L-NAME was administered at a concentration of 400 mg/l in the drinking water for 4 weeks to give a mean daily intake of 18.7±0.4 mg L-NAME (41.4±0.8 mg/kg mean body weight). Body weight and food and water intakes were measured daily.
Systolic blood pressure was measured in selected unanaesthetised rats, using a tail-cuff method.

AcF-[OPdChaWR] [PMX53]
water intake or growth rate (PMX53 1 mg/kg/day orally 32 days, L-NAME 400 mg/l in drinking water 4 weeks): Neither L-NAME nor C5a receptor antagonist treatment altered
wet weights of the remaining major organs (control and L-NAME rats): did not significantly alter
